# This is a selection; strong and weak results do not stand in their true shares. Calls of active or inactive are those of the source. No stated cut-off is given here; in the data, active means activation above about 65%; inactive means the rest.
# Protein sequences, listed by entry. Tags and fused reporters are not part of them.
# UniProt P04062, whole entry L483P: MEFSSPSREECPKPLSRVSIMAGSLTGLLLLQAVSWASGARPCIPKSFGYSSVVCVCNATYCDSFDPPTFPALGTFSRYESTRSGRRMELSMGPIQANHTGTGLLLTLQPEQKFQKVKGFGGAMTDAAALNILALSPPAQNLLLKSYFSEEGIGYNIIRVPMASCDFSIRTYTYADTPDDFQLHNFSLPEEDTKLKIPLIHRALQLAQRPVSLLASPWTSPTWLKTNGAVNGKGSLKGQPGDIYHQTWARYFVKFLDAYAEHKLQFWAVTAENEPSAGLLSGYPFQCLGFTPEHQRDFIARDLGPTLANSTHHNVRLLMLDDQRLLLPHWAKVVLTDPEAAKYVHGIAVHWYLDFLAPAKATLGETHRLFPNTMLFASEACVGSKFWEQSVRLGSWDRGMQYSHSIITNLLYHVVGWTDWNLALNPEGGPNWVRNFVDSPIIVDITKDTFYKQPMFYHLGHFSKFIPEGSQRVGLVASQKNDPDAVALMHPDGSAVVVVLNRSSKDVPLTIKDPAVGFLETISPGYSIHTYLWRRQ
# Biological target: Lysosomal acid glucosylceramidase (Homo sapiens) (UniProt P04062)
# Test: raising glucocerebrosidase activity, Gaucher cells – primary screen (AID 784);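 further: 0% = vehicle wells and 100% = positive control wells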
# Conditions: L444P Gaucher fibroblasts, 4-MU-glucoside fluorescence, 3 days; at 10 µM; stronger effect = higher value
row,Structure (SMILES),activation
1,COc1ccccc1OP(C)(=O)Nc1c(C)n(C)n(-c2ccccc2)c1=O (centres undefined),inactive: -0.9%
2,CP(=O)(Oc1ccccc1)N1CCOC1=O (centres undefined),inactive: -15.6%
3,CP(=O)(Nc1ccc2c(c1)OCCO2)Oc1ccccc1 (centres undefined),inactive: 14.8%
4,Cc1ccccc1NP(C)(=O)Nc1ccccc1C,inactive: -4.53%
5,CCOP(C)(=S)SCC(=O)NC(C)(CC)C(=O)O (centres undefined),inactive: 2.04%
6,CP(=O)(Nc1ccccc1F)Oc1ccccc1 (centres undefined),inactive: 8.06%
7,Cc1nc2ccc3ccccc3c2s1.O=[N+]([O-])c1cc([N+](=O)[O-])c(O)c([N+](=O)[O-])c1,inactive: -9.98%
8,CP(=S)(Nn1cnnc1)Oc1ccccc1 (centres undefined),inactive: -6.23%
9,COc1ccccc1OP(C)(=O)Nc1ccc(C)cc1 (centres undefined),inactive: -9.34%

# — PubChem BioAssay AID784 (The Scripps Research Institute Molecular Screening Center, 2007)
